The text below walks through data of US6492381B1, “Tricyclic carbamate compounds useful for inhibition of G-protein function and for treatment of proliferative diseases” (Schering Corp., priority 1993, dated 2002).

By UniProt entry, the sequences of proteins in these tests, tags left out.
UniProt Q02293, whole entry: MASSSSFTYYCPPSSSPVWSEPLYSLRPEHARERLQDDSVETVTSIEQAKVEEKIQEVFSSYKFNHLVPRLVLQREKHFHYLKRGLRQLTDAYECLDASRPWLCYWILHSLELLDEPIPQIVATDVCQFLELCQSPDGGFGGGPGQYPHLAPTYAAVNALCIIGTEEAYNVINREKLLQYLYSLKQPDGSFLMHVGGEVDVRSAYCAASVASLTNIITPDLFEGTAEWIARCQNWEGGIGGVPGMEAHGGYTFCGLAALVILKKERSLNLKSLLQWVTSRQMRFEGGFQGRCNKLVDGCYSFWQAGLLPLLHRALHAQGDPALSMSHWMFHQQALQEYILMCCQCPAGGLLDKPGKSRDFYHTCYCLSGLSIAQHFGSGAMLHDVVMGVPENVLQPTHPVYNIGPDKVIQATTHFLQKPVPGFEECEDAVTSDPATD

In this experiment the target is T1, farnesyl protein transferase (FPT) (Rattus norvegicus, UniProt Q02293+Q04631).
T1 construct: were partially purified from rat brain by ammonium sulfate fractionation followed by Q-Sepharose; from tissue; host or cells: rat brain
Kind of experiment: In vitro enzyme assay: inhibition of farnesyl protein transferase. It is filed as biochemical. The procedure: 1. In vitro enzyme assays: Inhibition of farnesyl protein transferase and geranylgeranyl protein transferase.
Human farnesyl protein transferase was also expressed in E. coli, using cDNA clones encoding both the α and β subunits. […] Two forms of val^12-Ha-Ras protein were prepared as substrates for these enzymes, differing in their carboxy terminal sequence. One form terminated in cysteine-valine-leucine-serine (Ras-CVLS) the other in cystein-valine-leucine-leucine (Ras-CVLL). Ras-CVLS is a substrate for the farnesyl protein transferase while Ras-CVLL is a substrate for geranylgeranyl protein transferase I. The cDNAs encoding these proteins were constructed so that the proteins contain an amino-terminal extension of 6 histidine residues. Both proteins were expressed in Escherichia coli and purified using metal chelate affinity chromatography. The radiolabelled isoprenyl pyrophosphate substrates, [^3H]farnesyl pyrophosphate and [^3H]geranylgeranyl pyrophosphate, were purchased from DuPont/New England Nuclear.
The reaction was allowed to proceed for 30 minutes at room temperature and then stopped with 0.5 ml of 4% sodium dodecyl sulfate (SDS) followed by 0.5 ml of cold 30% trichloracetic acid (TCA). […] Percent inhibition was calculated relative to the DMSO vehicle control.

In turn, `CCOC(=O)N1CCC(C2c3ccc(Cl)cc3C=Cc3cccnc32)CC1` (stereo not shown) [Compound 620.00, 8-chloro-11-(1-ethoxycarbonyl-4-piperidinyl)-11H-benzo[5,6]cyclohepta[1,2-b]pyridine] yielded an IC50 of 8.9 µM.

As a reminder, the IC50 is the point on the concentration scale where inhibition reaches its midpoint. A low value points to higher potency.
